{"source": "patent US20210260064A1", "about": "“POZIOTINIB COMBINATIONS WITH AN ANTI-HER1, HER2 OR HER4 ANTIBODY AND METHODS OF USE THEREOF” (Spectrum Pharmaceuticals, Inc., priority 2018, published 2021)", "key": {"[1]": {"tested_on": "patients with HER2-poisitive GC resistant to trastuzumab", "conditions": "phase I; cited from earlier work"}, "HER2-positive GC cells": {"tested_on": "HER2-positive GC cells", "conditions": "cited from earlier work"}, "BT-474 cells": {"tested_on": "BT-474 cells", "test": "Combination of poziotinib with other anticancer drugs, synergy on proliferation", "format": "cell-based", "conditions": "HER2-overexpressed, ER-negative breast cancer cells"}, "MBA-MB-453 cells": {"tested_on": "MBA-MB-453 cells", "test": "Combination of poziotinib with other anticancer drugs, synergy on proliferation", "format": "cell-based", "conditions": "HER2 overexpressed trastuzumab resistant breast cancer cells; concentrations equal to or lower than the GI50 of poziotinib alone"}, "N-87 cells": {"tested_on": "N-87 cells", "test": "Combination of poziotinib with other anticancer drugs, synergy", "format": "cell-based", "conditions": "HER2-overexpressed gastric cancer cell line"}, "HER2-positive GC": {"tested_on": "HER2-positive GC", "conditions": "cited from earlier work"}, "[2]": {"tested_on": "NSCLC patients having EGFR activating mutations", "conditions": "in vivo; cited from earlier work"}}}
{"molecule": "DS8201a", "values": [{"measurement": "DCR", "setting": "[1]", "result": 78, "unit": "%"}, {"measurement": "ORR", "setting": "[1]", "result": 44, "unit": "%"}, {"measurement": "anti-tumor activity", "setting": "HER2-positive GC cells", "result": "potent anti-tumor'activity"}]}
{"molecule": "trastuzumab: humanized anti-HER2 IgG1 monoclonal antibody", "values": [{"measurement": "synergistic effect when combined with poziotinib", "setting": "BT-474 cells", "result": "weak synergistic effect"}, {"measurement": "synergistic effect when combined with poziotinib", "setting": "MBA-MB-453 cells", "result": "excellent synergistic effect"}, {"measurement": "synergistic effect when combined with poziotinib", "setting": "N-87 cells", "result": "synergistic effect was observed at some concentrations"}, {"measurement": "Effect of trastuzumab beyond progression on PFS and ORR", "setting": "HER2-positive GC; prospective phase II study, second-line", "result": "failed to improve PFS and the ORR"}, {"measurement": "Effect of trastuzumab beyond progression on PFS and OS", "setting": "HER2-positive GC; retrospective study", "result": "increased PFS and OS"}]}
{"molecule": "COc1cc2ncnc(Nc3ccc(F)c(Cl)c3)c2cc1OCCCN1CCOCC1", "note": "[gefitinib]", "values": [{"measurement": "Patients observed to be resistant due to the EGFR T790M mutation", "setting": "[2]", "result": "about 60%"}]}
